Laboratory results as given in US20180030537A1, “PUMA, A PRO-APOPTOTIC GENE, AS A NOVEL MOLECULAR BIOMARKER FOR TNFALPHA-INDUCED HUMAN ISLET DAMAGE” (CITY OF HOPE, priority 2010, published 2018).

Tested on: human islets
Test: β cell apoptosis by TUNEL/insulin staining and Laser Scanning Cytometry
Format: cell-based
Details: 24-hour culture, TNF-α 50 ng/mL with or without IFN-γ 1000 U/mL; FIG. 11B, 11C
Experimental: FIGS. 11A-H. TNF-α induces apoptosis through mitochondrial pathway in human islets. Silencing PUMA prevented cell death induced by TNF-α and IFNγ stimulation in INS-1 cells. FIG. 11A) The activation of Caspase-8, Caspase-9 and Caspase-3 was examined in islets cultured with or without TNF-α (5 and 50 ng/ml) and/or IFNγ (1000 U/ml) for 24 hours by western blot. […] Paraffin sections from human islets cultured for 24 hours with or without TNF-α (50 ng/ml) (FIG. 11B) or the combination of TNF-α (50 ng/ml) and IFNγ (1000 U/ml) (FIG. 11C) were stained for TUNEL and insulin to identify apoptotic β cells, quantified using Laser Scanning Cytometry. The percentage of apoptotic β cells was calculated by dividing the TUNEL-insulin double-positive cell number by the total number of insulin-positive cells in each section (n=3, * p<0.05). β cell apoptosis was induced by TNF-α and IFNγ through activation of Caspase-9 and Caspase-3. β cell apoptosis was not detected by TUNEL staining when stimulated by TNF-α alone. However TNF induced islet apoptosis was confirmed by the increased expression of cleaved Caspase-9 and Caspase-3. […] FIG. 11D) Percentage of dead cells assessed by % DAPI positive cells (*p<0.01, n=3). […] FIG. 11E) Mitochondrial membrane permeability is assessed by TMRE staining (**p<0.005, n=3). […]

With “TNF-α: recombinant human (or rat, for INS-1) TNF-α, R&D Systems; cytokine stimulus” the “β cell apoptosis (TUNEL-insulin double-positive cells)” value was “did not induce β cell apoptosis”.
